Source: US9260430B2, “Use of TRPA1 antagonists to prevent or treat infections caused by biological-warfare agents” (dated 2016)

Chains of the proteins cited; added tags and fusions are not shown.
UniProt O75762, whole entry, looked up: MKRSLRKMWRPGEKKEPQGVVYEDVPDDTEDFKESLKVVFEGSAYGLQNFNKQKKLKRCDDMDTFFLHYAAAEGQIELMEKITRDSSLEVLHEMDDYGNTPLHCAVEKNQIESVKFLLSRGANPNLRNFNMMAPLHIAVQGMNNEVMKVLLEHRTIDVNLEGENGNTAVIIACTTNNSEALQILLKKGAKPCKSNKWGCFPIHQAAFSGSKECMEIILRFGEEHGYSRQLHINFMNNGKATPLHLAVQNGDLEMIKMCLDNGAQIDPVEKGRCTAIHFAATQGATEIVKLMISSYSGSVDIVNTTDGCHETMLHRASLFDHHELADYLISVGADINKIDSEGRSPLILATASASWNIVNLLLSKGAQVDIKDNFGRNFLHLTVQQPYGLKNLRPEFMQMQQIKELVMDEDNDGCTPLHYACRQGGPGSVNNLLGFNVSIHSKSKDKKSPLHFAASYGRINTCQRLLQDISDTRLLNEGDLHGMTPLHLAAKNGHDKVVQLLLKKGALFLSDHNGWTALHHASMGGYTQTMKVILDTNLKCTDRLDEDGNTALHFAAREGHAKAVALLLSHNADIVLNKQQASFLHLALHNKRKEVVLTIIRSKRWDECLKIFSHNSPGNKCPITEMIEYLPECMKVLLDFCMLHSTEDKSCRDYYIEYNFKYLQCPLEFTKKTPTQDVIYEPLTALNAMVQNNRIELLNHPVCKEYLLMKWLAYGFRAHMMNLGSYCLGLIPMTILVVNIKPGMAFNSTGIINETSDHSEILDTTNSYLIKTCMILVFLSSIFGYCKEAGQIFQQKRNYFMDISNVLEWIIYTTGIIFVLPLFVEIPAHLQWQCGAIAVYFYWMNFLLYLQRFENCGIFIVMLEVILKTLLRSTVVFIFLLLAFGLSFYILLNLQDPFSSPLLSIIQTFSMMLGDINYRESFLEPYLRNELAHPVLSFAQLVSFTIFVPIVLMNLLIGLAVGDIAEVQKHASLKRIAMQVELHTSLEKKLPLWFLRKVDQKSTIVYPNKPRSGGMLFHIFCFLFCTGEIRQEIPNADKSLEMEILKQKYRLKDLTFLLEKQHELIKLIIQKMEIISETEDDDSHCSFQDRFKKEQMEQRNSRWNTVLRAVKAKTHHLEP
UniProt Q6RI86, whole entry, looked up: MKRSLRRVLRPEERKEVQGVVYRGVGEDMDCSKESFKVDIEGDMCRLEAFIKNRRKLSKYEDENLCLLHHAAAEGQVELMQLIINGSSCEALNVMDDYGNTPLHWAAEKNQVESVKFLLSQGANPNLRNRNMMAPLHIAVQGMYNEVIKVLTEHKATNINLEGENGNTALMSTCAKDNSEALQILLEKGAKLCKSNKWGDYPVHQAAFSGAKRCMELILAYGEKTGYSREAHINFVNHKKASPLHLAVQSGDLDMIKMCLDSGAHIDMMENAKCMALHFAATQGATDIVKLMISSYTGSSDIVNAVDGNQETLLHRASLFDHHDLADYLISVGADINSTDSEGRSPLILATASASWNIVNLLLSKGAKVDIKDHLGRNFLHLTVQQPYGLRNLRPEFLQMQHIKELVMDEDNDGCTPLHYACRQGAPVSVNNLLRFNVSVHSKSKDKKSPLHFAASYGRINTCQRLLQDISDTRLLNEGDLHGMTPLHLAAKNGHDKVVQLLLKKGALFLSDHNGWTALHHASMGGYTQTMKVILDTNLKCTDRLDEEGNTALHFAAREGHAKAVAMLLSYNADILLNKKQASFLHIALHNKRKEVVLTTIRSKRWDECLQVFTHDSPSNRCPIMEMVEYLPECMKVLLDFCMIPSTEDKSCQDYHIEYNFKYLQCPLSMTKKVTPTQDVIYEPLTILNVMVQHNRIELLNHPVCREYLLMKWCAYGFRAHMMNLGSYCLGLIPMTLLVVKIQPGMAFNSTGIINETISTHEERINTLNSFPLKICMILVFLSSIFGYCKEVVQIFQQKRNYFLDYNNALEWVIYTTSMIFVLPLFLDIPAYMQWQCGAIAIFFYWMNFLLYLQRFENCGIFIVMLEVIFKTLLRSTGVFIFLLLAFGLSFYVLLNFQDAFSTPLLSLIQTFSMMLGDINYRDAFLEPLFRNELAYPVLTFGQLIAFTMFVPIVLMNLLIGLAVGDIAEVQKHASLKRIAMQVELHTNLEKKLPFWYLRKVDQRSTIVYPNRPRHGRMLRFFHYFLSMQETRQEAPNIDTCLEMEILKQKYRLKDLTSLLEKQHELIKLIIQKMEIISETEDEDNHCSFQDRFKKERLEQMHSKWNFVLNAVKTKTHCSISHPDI

Legend:
[1] = biological target: human TRPA1 (Homo sapiens, UniProt O75762); experiment: FLIPR assay, AITC induced activation
[2] = biological target: rat TRPA1 (Rattus norvegicus, UniProt Q6RI86); experiment: Rat TRPA1 potency

CCC(=N\O)/C(C)=C/c1ccc(F)cc1
improvement in human potency over AP18 (36) [1]: over 100 fold
improvement in rat potency over AP18 (36) [2]: greater than 20 fold
